Molecular target: T1, monkey GLP-1R (GenBank: JN033215.1) (Macaca fascicularis, UniProt F8V479)
T1 construct: expressed in transfected cells; host or cells: HEK293 (monkey GLP-1R-CRE-Luciferase-HEK293)
Assay: monkey GLP-1R-CRE-Luciferase-HEK293 reporter gene assay (antagonism of GLP-1)
Type: cell-based
Details: read-out: IC50, antagonism of activation of monkey GLP-1R by GLP-1; 2.5 ng/mL GLP-1, luciferase reporter, overnight
Method: 100 μL of Bright-Glo reagent (Promega Corporation) was added, and the plate was tapped gently to facilitate the mixing of the solution. Chemiluminescence value was read with microplate reader after three minutes. […] The data were analyzed by four-parameter curve fitting with GraphPad Prism 9, and IC50 was calculated.

Amino acid sequences for entries named in this document (tags omitted). Residues count along the entry.
UniProt F8V479, 24-463: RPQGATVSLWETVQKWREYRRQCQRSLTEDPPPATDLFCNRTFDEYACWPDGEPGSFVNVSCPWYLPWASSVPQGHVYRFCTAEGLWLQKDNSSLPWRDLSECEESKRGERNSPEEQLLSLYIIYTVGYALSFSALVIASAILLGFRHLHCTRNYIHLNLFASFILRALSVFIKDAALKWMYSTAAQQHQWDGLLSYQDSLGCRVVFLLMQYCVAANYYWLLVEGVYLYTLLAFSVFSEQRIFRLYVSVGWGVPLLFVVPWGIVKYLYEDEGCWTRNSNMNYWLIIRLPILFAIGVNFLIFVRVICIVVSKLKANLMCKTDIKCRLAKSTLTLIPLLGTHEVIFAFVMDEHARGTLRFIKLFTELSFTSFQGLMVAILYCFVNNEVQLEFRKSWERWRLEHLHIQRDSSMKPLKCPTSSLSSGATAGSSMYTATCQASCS

“exendin 9-39 [Avexitide, reference compound]” gave an IC50 of 2120 nM.
